Tested on: Caco-2 cell monolayer
Settings: VIP ≥ 1, p < 0.05, fold change >2.0 or < 0.5

| Differential metabolite TSA vs. TSB | Differential metabolite TSA vs. DS (significantly accumulated in TSA) | SMILES |
| --- | --- | --- |
| upregulated | – | COc1ccc(-c2cc(=O)c3c(O)c(OC)c(OC)cc3o2)cc1O [Eupatorin] |
| – | upregulated | COc1ccc(/C=C/C(=O)O)cc1O [Isoferulic acid] |
